Two substances from article PMC3640069, “VPPIPP and IPPVPP: Two Hexapeptides Innovated to Exert Antihypertensive Activity” (PLoS ONE, 2013) can be followed below.

Marks after values point to notes of the source that are not given here.

The nature of this data set: Blood glucose level of SHR after administration. It counts as in vivo, rat. Particulars: 1.5 mg/kg BW; for effect on blood glycometabolism: 3.5 h after administration; for Blood Glucose Concentration: tail blood 3.5 h after administration, mean ± SD, SD. Here is the method: To evaluate the effect of the selected tripeptides on glycometablism after administration in vivo, the SHRs were tail bled 3.5 h after administration with the selected tripeptides at a dose of 1.5 mg/kg BW, and blood glucose level was determined by One Touch Ultra test strips using the One Touch Ultra blood Glucose monitoring system (LifeScan, Inc. Milpitas, USA).

In the case of “Valine-Proline-Proline-Isoleucine-Proline-Proline [VPPIPP]”, the “effect on blood glycometabolism” value is “no negative impact” and the “Blood Glucose Concentration” value is recorded as 4.30±0.15^a mmol/L.

On to “Isoleucine-Proline-Proline-Valine- Proline-Proline [IPPVPP]”, for which the “effect on blood glycometabolism” value was “no negative impact” and the “Blood Glucose Concentration” value is 4.20±0.60^a mmol/L.
